These results are taken from PubChem BioAssay (Tox21).

By UniProt entry, the sequences of proteins in these tests, tags left out.
UniProt P04150, whole entry: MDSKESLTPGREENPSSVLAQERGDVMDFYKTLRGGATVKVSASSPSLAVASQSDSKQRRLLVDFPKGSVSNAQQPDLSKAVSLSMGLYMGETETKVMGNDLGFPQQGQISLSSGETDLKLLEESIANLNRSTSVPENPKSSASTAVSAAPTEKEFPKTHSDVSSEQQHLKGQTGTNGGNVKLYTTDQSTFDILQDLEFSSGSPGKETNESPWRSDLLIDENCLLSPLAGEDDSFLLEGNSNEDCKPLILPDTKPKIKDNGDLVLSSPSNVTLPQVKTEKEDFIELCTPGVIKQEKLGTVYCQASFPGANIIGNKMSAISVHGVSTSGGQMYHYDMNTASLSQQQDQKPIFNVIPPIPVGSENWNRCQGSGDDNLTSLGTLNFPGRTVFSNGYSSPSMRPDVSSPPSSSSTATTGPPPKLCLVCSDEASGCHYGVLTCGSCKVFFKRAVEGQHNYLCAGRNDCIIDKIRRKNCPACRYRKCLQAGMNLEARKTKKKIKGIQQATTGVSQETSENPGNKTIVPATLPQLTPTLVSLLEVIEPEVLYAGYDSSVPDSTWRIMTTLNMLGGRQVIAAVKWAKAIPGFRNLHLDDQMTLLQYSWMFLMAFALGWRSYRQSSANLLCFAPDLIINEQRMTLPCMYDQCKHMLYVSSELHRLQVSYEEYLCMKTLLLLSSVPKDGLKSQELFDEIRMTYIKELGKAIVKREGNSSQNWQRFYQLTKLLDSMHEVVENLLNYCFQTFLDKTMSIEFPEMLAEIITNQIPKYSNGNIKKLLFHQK

“And” between values parts separate entries of the source, which are not always exact repeats. Identical values can stand only once. The list shows a part of the results, in another mix than the full data. Records with an inconclusive call do not appear. Some compounds were tested as several samples or in several runs, with calls that do not always agree. The source made the active and inactive calls. Unless noted, the call rests on the fitted dose curve; in most records, active means well fitted curve in the direction sought with a large enough effect in the repeat runs; inconclusive means weak or mixed curves; inactive means no such curve, though single readings can be large; an effect the other way counts as inactive or inconclusive.

Experiment [1] can be described thus: qHTS assay to test for compound auto fluorescence at 535 nm (green) in HEK293 cells (AID 720680). Further: on the % scale 0 is the no-effect control and ±100 the full control effect. Particulars: green autofluorescence 485/535 nm.
A short description of experiment [2]: qHTS assay to test for compound auto fluorescence at 460 nm (blue) in HEK293 cell free culture (AID 720681). Further: on the % scale 0 is the no-effect control and ±100 the full control effect. Conditions: cell-free medium, autofluorescence 405/460 nm (blue). In short, it runs like this:
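Compounds were added to cell-free DMEM with 10% FBS and fluorescence read directly. The blue channel used 405 nm excitation and 460 nm emission, with triamterene as the reference fluorophore.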
For orientation: In qHTS, concentration-response curves come from the screen itself.

Experiment [3] can be described thus: qHTS assay to test for compound auto fluorescence at 535 nm (green) in HEK293 cell free culture (AID 720682). Further: on the % scale 0 is the no-effect control and ±100 the full control effect. Particulars: cell-free medium, green autofluorescence 485/535 nm, stronger effect = higher value. In short, it runs like this: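 Read-out: 485/535 nm fluorescence intensity, calibrated against fluorescein. Medium only (DMEM + 10% FBS, no cells); test compound or DMSO vehicle added by pintool before plate reading.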

Experiment [4] in a line: qHTS assay to test for compound auto fluorescence at 590 nm (red) in HEK293 cell free culture (AID 720683). Further: on the % scale 0 is the no-effect control and ±100 the full control effect. Particulars: cell-free medium autofluorescence, Ex540/Em590 red. In a few lines: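 Cell-free wells of DMEM with 10% FBS received compound, and intrinsic fluorescence was read at excitation/emission 540/590 nm. Values expressed as equivalence to Rose Bengal sodium.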

The nature of experiment [5]: qHTS assay to test for compound auto fluorescence at 590 nm (red) in HepG2 cell free culture (AID 720684). Further: on the % scale 0 is the no-effect control and ±100 the full control effect. Conditions: cell-free medium autofluorescence, red 540/590 nm. In a few lines: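 Compounds are added to culture medium (MEM, 10% FBS) lacking cells, then fluorescence is read at excitation 540 nm, emission 590 nm, with Rose Bengal sodium as the equivalency standard.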

Experiment [6] is described as follows: qHTS assay to test for compound auto fluorescence at 460 nm (blue) in HepG2 cell free culture (AID 720685). Further: on the % scale 0 is the no-effect control and ±100 the full control effect. Particulars: Cell-free culture medium, blue autofluorescence 405/460 nm. In a few lines:
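Compound (23 nL) or DMSO pinned into cell-free MEM with 10% FBS; blue fluorescence read at 405/460 nm excitation/emission, expressed as auto-fluorescence equivalency to triamterene.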

Experiment [7] is described as follows: qHTS assay to test for compound auto fluorescence at 535 nm (green) in HepG2 cell free culture (AID 720686). Further: on the % scale 0 is the no-effect control and ±100 the full control effect. Particulars: Cell-free medium, green autofluorescence 485/535 nm.
Experiment [8] can be described thus: qHTS assay to test for compound auto fluorescence at 460 nm (blue) in HepG2 cells (AID 720687). Further: on the % scale 0 is the no-effect control and ±100 the full control effect. Particulars: autofluorescence 405/460 nm, 1 h. In short, it runs like this:
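HepG2 cells in MEM with 10% FBS, attached overnight at 37 C, were exposed to compound or DMSO for 1 hr at 37 C, 5% CO2. Blue fluorescence was read at 405/460 nm, with triamterene as reference fluorophore.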

The target in experiment [9] is Glucocorticoid receptor (Homo sapiens) (UniProt P04150). Put plainly: qHTS assay to identify small molecule agonists of the glucocorticoid receptor (GR) signaling pathway (AID 720691; active means well fitted activation curve with a large enough effect in the signal ratio in the repeat runs, not every such curve was filed as active; the % refers to the signal ratio; further: on the % scale 0 is the no-effect control and ±100 the full control effect). Conditions: GR-bla HeLa, beta-lactamase reporter ratio, 18 h.
The target is the same in experiment [10]. Put plainly: qHTS assay to identify small molecule antagonists of the glucocorticoid receptor (GR) signaling pathway (AID 720692; active means well fitted inhibition curve with a large enough effect in the signal ratio in the repeat runs, not every such curve was filed as active; the % refers to the signal ratio; further: potency means the concentration at half of the fitted maximal effect). Conditions: GR-bla HeLa, beta-lactamase FRET ratio, dexamethasone-stimulated, 18 h; series mostly up to 58.5 µM.
A short description of experiment [11]: qHTS assay for identifying genotoxic compounds that show differential cytotoxicity against isogenic chicken DT40 cell lines with known DNA damage response pathways - Rev3 mutant cell line (AID 743014). Further: potency means the concentration at half of the fitted maximal effect; nearly all actives have a fitted effect of over 55% in size. Particulars: chicken DT40 Rev3-/- viability, CellTiter-Glo, 40 h; series mostly up to 68.4 µM. From the text:
(§1) National Center for Advancing Translational Sciences [NCATS]
(§2) NIH Chemical Genomics Center [NCGC]
(§3) U.S. Environmental Protection Agency [EPA]
(§4) National Institutes of Environmental Health Sciences [NIEHS]
(§5) National Toxicology Program [NTP]
(§6) U.S. Food and Drug Administration [FDA]
DNA repair pathways play a critical role in cellular homeostasis by repairing DNA damage induced by endogenous processes and xenobiotics. Isogenic chicken DT40 cell lines deficient in different DNA repair pathways can be used to identify genotoxic compounds and aid in characterizing the nature of the DNA damage induced. Two DNA repair-deficient cell lines with disrupted genes, Rad54/Ku70 or Rev3, were used to screen the Tox21 10K compound library. Possible genotoxicity was based on the presence of a significant increase in cytotoxicity in one or more of the DNA repair-deficient cell lines compared to that observed in the parental DNA repair-proficient cell line. CellTiter Glo viability assay (Promega, Madison, WI) was used to measure cell viability in these cells after compound treatment. This assay includes the data from the Rev3 mutant cell line.
(§7) Tox21 Assay Protocol Summary:
300 DT40 mutant cells in 5 uL/well were dispensed into white, solid-bottom 1536-well plates using a Multidrop Combi (ThermoFisher Scientific, Waltham, MA) dispenser. After the assay plates were incubated at 37 C/5% CO2 for approximately 0.5 hour, 23 nL of compounds dissolved in DMSO, positive controls or DMSO only was transferred into the assay plate by a pintool work station (Kalypsys, San Diego, CA). The assay plates were incubated at 37 C/5% CO2 for 40 hours. After 5 uL per well of CellTiter-Glo reagent was added into each well of the assay plates, the plates were incubated for 30 min at room temperature and the luminescence intensity of the plates was measured using a ViewLux (PerkinElmer, Shelton, CT) plate reader.

The nature of experiment [12]: qHTS assay for identifying genotoxic compounds that show differential cytotoxicity against isogenic chicken DT40 cell lines with known DNA damage response pathways - Rad54/Ku70 mutant cell line (AID 743015). Further: potency means the concentration at half of the fitted maximal effect; nearly all actives have a fitted effect of over 60% in size. Conditions: DT40 Rad54/Ku70 mutant viability, CellTiter-Glo, 40 h; series mostly up to 66.8 µM.
The nature of experiment [13]: qHTS assay to identify small molecule antagonists of the androgen receptor (AR) signaling pathway - cell viability counter screen (AID 743033; further: on the % scale 0 is the no-effect control and ±100 the full control effect; nearly all actives have a fitted effect of over 45% in size). Particulars: AR-bla HEK293 viability, CellTiter-Glo luminescence, 16 h.
Experiment [14] concerns thyroid hormone receptor (rat, GH3 cells). Put plainly: qHTS assay to identify small molecule agonists of the thyroid receptor (TR) signaling pathway (AID 743066; calls by dose curve; further: on the % scale 0 is the no-effect control and ±100 the full control effect). Particulars: GH3.TRE-Luc cells, TR agonist luciferase, 24 h.
Experiment [15] can be described thus: qHTS assay to identify small molecule antagonists of the glucocorticoid receptor (GR) signaling pathway - cell viability counter screen (AID 720693). Further: on the % scale 0 is the no-effect control and ±100 the full control effect; nearly all actives have a fitted effect of over 55% in size. Conditions: GR-bla HeLa viability, CellTiter-Glo luminescence, 18 h; at 58.5 µM (top of the series); with 5 nM dexamethasone present.
Source text: as §1, §2, §3, §4, §5, §6
The Glucocorticoid receptor (GR) is one of the members of the nuclear receptor family of ligand-dependent transcription factors. GR plays a critical role in carbohydrate, protein and lipid metabolisms and programmed cell death. CellSensor GR-bla HeLa cell line (Invitrogen) contains a beta-lactamase reporter gene under the control of the glucocorticoid response element stably integrated into HeLa cells, a cervical cancer cell line that expresses glucocorticoid receptor. The activation of the reporter gene under culture conditions can be detected by fluorescence intensity. This cell line has been used to screen the Tox21 10K compound library and to identify the compounds that inhibit the GR signaling. The cytotoxicity of the Tox21 compound library against the GR-bla HeLa cell line was tested in parallel by measuring the cell viability using CellTiter-Glo assay in the same wells.
as §7
The GR-bla HeLa cells were dispensed at 1500 cells/5 ul/well in 1536-well black wall/clear bottom plates using a Multidrop Combi (ThermoFisher Scientific, Waltham, MA) dispenser. After the assay plates were incubated at a 37 C/5% CO2 incubator for 4 hours, 23 nL of compounds dissolved in DMSO, positive controls or DMSO only was transferred to the assay plate by a pintool station (Kalypsys, San Diego, CA), followed by addition of 1 uL of dexamethasone (5 nM, final concentration in the well). The plates were incubated at 37 C for 18 hours. After 1 uL of LiveBLAzerTM B/G FRET substrate was added using a Flying Reagent Dispenser (Aurora Discovery, San Diego, CA), the plates were incubated at room temperature (RT) for 2 hours, and fluorescence intensity was measured by an Envision plate reader (PerkinElmer, Shelton, CT). After measurement of bla assay, 3 ul CellTiter-Glo (Promega, Madison, WI) was added to measure the cytotoxicity and the plates were then incubated at RT for 30 min. The luminescence was measured using a ViewLux (Perkin Elmer) plate reader.

Experiment [16] can be described thus: qHTS assay to identify small molecule antagonists of the androgen receptor (AR) signaling pathway using the MDA cell line - cell viability counter screen (AID 743041; further: on the % scale 0 is the no-effect control and ±100 the full control effect; nearly all actives have a fitted effect of over 45% in size). Conditions: MDA-kb2 viability, CellTiter-Fluor, 16 h; at 70.3 µM (top of the series); cells co-treated with R1881 androgen agonist. In short, it runs like this:
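Same-well cytotoxicity was assessed by CellTiter-Fluor in MDA-kb2 AR-luc cells after 16 h of compound treatment under R1881 agonism.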

Experiment [17] is described as follows: qHTS assay to identify small molecule antagonists of the thyroid receptor (TR) signaling pathway (AID 743065). Further: potency means the concentration at half of the fitted maximal effect; nearly all actives have a fitted effect of over 55% in size. Conditions: GH3.TRE-Luc, T3-stimulated luciferase inhibition, 23.5 h; series mostly up to 70.3 µM. In a few lines: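 GH3.TRE-Luc rat pituitary cells (two TREs driving luciferase) were dosed with compound, then stimulated with 1 nM T3 (final) for 23.5 h at 37 C. ONE-Glo luminescence was the read-out, with CellTiter-Fluor fluorescence as the cytotoxicity counter-screen.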

As to `O=[N+]([O-])c1ccccc1[N+](=O)[O-]`, the fluorescence, % of fluorescein in experiment [1] (at 91.3 µM (top of the series)) is inactive: 0.0167%; in experiment [1] (at 95.7 µM (top of the series)), inactive: -0.0095%. Also, the fluorescence, % of fluorescent control in experiment [2] (at 91.3 µM (top of the series)) was inactive: 0.0036%; in [2] (at 95.7 µM (top of the series)), inactive: -0.344%; in experiment [4] (at 91.3 µM (top of the series)), inactive: -0.143%; in experiment [4] (at 95.7 µM (top of the series)), inactive: -0.116%; in [6] (at 91.3 µM (top of the series)), inactive: 0.0461%; in experiment [6] (at 95.7 µM (top of the series)) it was inactive: 0.12%. The values for the fluorescence, % of fluorescent control in experiment [8] (at 91.3 µM (top of the series)) and in experiment [8] (at 95.7 µM (top of the series)) were inactive: 0.0179% and inactive: -0.0901%, respectively. For the same compound, the activity change in experiment [3] (at 91.3 µM (top of the series)) is inactive: 0.146%; in experiment [3] (at 95.7 µM (top of the series)), inactive: 0.123%. Also, the fluorescence, % of Rose Bengal in experiment [5] (at 91.3 µM (top of the series)) is inactive: 0.0098%; in experiment [5] (at 95.7 µM (top of the series)) it was inactive: -0.0595%. Also, the values for the fluorescence, % of fluorescein control in [7] (at 91.3 µM (top of the series)) and in experiment [7] (at 95.7 µM (top of the series)) were inactive: -0.0344% and inactive: 0.0367%, respectively. Further, the activation in experiment [9] (at 62.4 µM (top of the series)) is inactive: 0.123%; in [9] (at 79.2 µM (top of the series)), inactive: -13.3%; in experiment [14] (at 83.9 µM (top of the series)), inactive: -1.43%; in experiment [14] (at 95.2 µM (top of the series)), inactive: -7.89%. For the same compound, the Potency in [10] was active: 44.8 µM and inactive; in experiment [11], active: 34.4 µM; in experiment [12] it was active: 70.3 µM and active: 61.1 µM. In addition, the activity change, negative = cytotoxicity was inactive: 3% in experiment [13] (at 58.5 µM (top of the series)) and inactive: -21.3% in experiment [13] (at 78.9 µM (top of the series)).
Turning to `CCOP(=S)(Cl)OCC`, in experiment [1] (at 91.3 µM (top of the series)), the fluorescence, % of fluorescein was inactive: 0.129%. Further, the fluorescence, % of fluorescent control in experiment [2] (at 91.3 µM (top of the series)) was inactive: -0.16%; in experiment [4] (at 91.3 µM (top of the series)) it was inactive: -0.291%; in experiment [6] (at 91.3 µM (top of the series)), inactive: -0.0897%; in [8] (at 91.3 µM (top of the series)) it was inactive: 0.0259%. Moreover, the activity change in experiment [3] (at 91.3 µM (top of the series)) was inactive: -0.111%. In experiment [5] (at 91.3 µM (top of the series)), the fluorescence, % of Rose Bengal is inactive: -0.217%. The fluorescence, % of fluorescein control in experiment [7] (at 91.3 µM (top of the series)) was inactive: -0.0387%. Also, the figures for the activation in experiment [9] (at 62.4 µM (top of the series)) and in [14] (at 83.9 µM (top of the series)) were inactive: 0.181% and inactive: -1.72%, respectively. Also, the viability change, negative = cytotoxic in experiment [15] is inactive: -19.4%; in [16] it was inactive: -2.68%. For the same compound, the results for the Potency in [11], in [12] and in [17] were active: 60.3 µM, active: 60.3 µM and active: 47.9 µM, respectively.
